“And” between values parts separate entries of the source, which are not always exact repeats. Identical values can stand only once. Only a part is listed here, and it is no random draw. The source made the active and inactive calls. The call rests on the fitted dose curve; in most records, active means well fitted activation curve with a large enough effect; inconclusive means small, poorly fitted or top-dose-only effect; inactive means no such curve, though single readings can be large or run the other way.
assay: qHTS for Inducers of the Endoplasmic Reticulum Stress Response (ERSR) in Human Glioma: qHTS; settings: U87-MG GRP78 promoter luciferase reporter, 16 h; hits give high values; further: % of control where 0% means no effect; nearly all actives have a fitted effect of over 35% in size

Question: With `CCCC1OP(N)(=O)OCC1CC` (stereo not drawn) as the compound, how does the activation read?
Answer: inactive: -1.56%

Question: For `CC(=O)Nc1ccc([As](=O)(O)O)cc1`, which activation is on record?
Answer: inactive: -4.09%

Question: For `O=C(O)c1ccccc1[As](=O)(O)O`, which activation is on record?
Answer: inactive: -11.1%

Question: Which activation does the source give for `Cc1ccc(NP(=O)(Oc2ccccc2F)Oc2ccccc2F)nc1` here?
Answer: inactive: -2.38%

Question: Which activation does the source give for `CN(C(=O)Cc1ccc(Cl)c(Cl)c1)[C@H]1CCCC[C@@H]1N1CCCC1` here?
Answer: inactive: -3.85% [middle of 11 runs]

Question: For `Cc1cc(SC(NC(=O)c2ccc(F)cc2)C(Cl)(Cl)Cl)ncn1` (stereo not drawn), which activation is on record?
Answer: inactive: -6.16%

Question: Which activation does the source give for `CCOP(=O)(Nc1ccccc1)OCC` here?
Answer: inactive: -6.25%

Question: For `O=C(NC(Sc1ccncn1)C(Cl)(Cl)Cl)c1ccccc1` (stereo not drawn), which activation is on record?
Answer: inactive: -2.63%

Question: For `Oc1ccccc1CNc1ccccn1`, which activation is on record?
Answer: inactive: -1.58%

Question: For `Nc1cc(N)c2nonc2c1[N+](=O)[O-]`, which activation is on record?
Answer: inactive: -4.54%

Question: For `CC(C)CC(=O)NC(Sc1ccc(Cl)cc1)C(Cl)(Cl)Cl` (stereo not drawn), which activation is on record?
Answer: inactive: -1.21%

Question: For `O=[N+]([O-])C1C(O)C(O)C([N+](=O)[O-])C(O)C1O` (stereo not drawn), which activation is on record?
Answer: inactive: 2.57%

Question: Which activation does the source give for `Cc1ccc(N/C(=N/P(=O)(N2CCOCC2)N2CCOCC2)N2CCOCC2)cc1` here?
Answer: inactive: 1.04%

Question: With `CN(C(=O)Cc1ccc(Cl)c(Cl)c1)[C@H]1CCCC[C@H]1N1CCCC1` as the compound, how does the activation read?
Answer: inactive: -1.25%

Question: Which activation does the source give for `NC(=O)c1cc([N+](=O)[O-])cc([N+](=O)[O-])c1N` here?
Answer: inactive: 0.208%

Question: With `O=[N+]([O-])c1cc2c(cc1[N+](=O)[O-])OCO2` as the compound, how does the activation read?
Answer: inactive: -10%

Question: For `CN1CCCC(OC(=O)C(c2ccccc2)c2ccccc2)C1` (stereo not drawn), which activation is on record?
Answer: inactive: -7.79%

Question: With `Clc1ccc(Cl)c(NC2=NCC(CBr)S2)c1` (stereo not drawn) as the compound, how does the activation read?
Answer: inactive: -2.4%

Question: With `Cc1ccc(OP(=O)(Nc2nccs2)Oc2ccc(C)cc2)cc1` as the compound, how does the activation read?
Answer: inactive: -2.04%

Question: Which activation does the source give for `COc1ccccc1OP(=O)(Nc1ccc(C)cn1)Oc1ccccc1OC` here?
Answer: inactive: 1.04%

Question: With `C[C@H]1OP(=O)(Oc2ccccc2)C[C@@H]2O[C@@H]21` (stereo partly drawn) as the compound, how does the activation read?
Answer: inactive: -1.19%

Question: Which activation does the source give for `C[C@@H]1C=CCP(=O)(Oc2ccccc2)O1` (stereo partly drawn) here?
Answer: inactive: -2.38%

Question: With `Cc1ccccc1CN(C)C(=O)COC(=O)C(O)(c1ccccc1)c1ccccc1` as the compound, how does the activation read?
Answer: inactive: -0.609%

Question: Which activation does the source give for `COC(=O)C1(C)COP(=O)(NCc2ccccc2)OC1` (stereo not drawn) here?
Answer: inactive: -0.719%

Question: For `CC(=O)c1ccc(N2CC2c2ccncc2)cc1` (stereo not drawn), which activation is on record?
Answer: inactive: -3.86%

Question: With `N#C/C(=C\c1ccc(N(CCBr)CCBr)cc1)C(N)=O` as the compound, how does the activation read?
Answer: inactive: 0.355%

Question: With `CC(=O)Nc1ccc(Oc2c([N+](=O)[O-])cc([N+](=O)[O-])cc2[N+](=O)[O-])cc1` as the compound, how does the activation read?
Answer: inactive: -3.82%

Question: With `CC(=O)Nc1ccc([As](=O)(O)O)c(O)c1` as the compound, how does the activation read?
Answer: inactive: 2.96%

Question: With `CCOc1ccc(C2=NCC(CBr)S2)cc1` (stereo not drawn) as the compound, how does the activation read?
Answer: inactive: -0.975%

Question: Which activation does the source give for `O=P1(Nc2nc3ccc(Cl)cc3s2)COc2ccccc2O1` (stereo not drawn) here?
Answer: inactive: 0.42%

Question: Which activation does the source give for `CC(C)(C)C(=O)NC(Sc1ccccc1)C(Cl)(Cl)Cl` (stereo not drawn) here?
Answer: inactive: -6.24%

Question: Which activation does the source give for `CCc1cc(O)c([N+](=O)[O-])c(C)c1[N+](=O)[O-]` here?
Answer: inactive: -1.13%

Question: For `CCC(=O)N1C2C3N(C(=O)CC)C1C1N(C(=O)CC)C(C(N1C(=O)CC)N3C(=O)CC)N2C(=O)CC`, which activation is on record?
Answer: inactive: -2.62%

Question: With `CN(C(=O)Cc1ccc(Cl)c(Cl)c1)[C@@H]1CCCC[C@@H]1N1CCCC1` as the compound, how does the activation read?
Answer: inactive: 0.265%

Question: With `O=C(OC1CN2CCC1CC2)c1ccccc1` (stereo not drawn) as the compound, how does the activation read?
Answer: inactive: -3.49% and inactive: -3.25%

Question: With `Cc1ccc(OP(=O)(Nc2ccccn2)Oc2ccc(C)cc2)cc1` as the compound, how does the activation read?
Answer: inactive: 0.0171%

Question: Which activation does the source give for `CC(=O)NC(SC(=S)N(CC(C)C)CC(C)C)C(Cl)(Cl)Cl` (stereo not drawn) here?
Answer: inactive: 2.9%

Question: For `COC(=O)c1cc2c(s1)N=C(c1ccccc1)N(C)P2(=O)N1CCOCC1` (stereo not drawn), which activation is on record?
Answer: inactive: -0.593%

Question: Which activation does the source give for `O=c1c2cc([N+](=O)[O-])ccc2[nH]c2c([N+](=O)[O-])cc([N+](=O)[O-])cc12` here?
Answer: inactive: -6.38%

Question: For `CN(C)C(=O)Oc1noc2ccccc12`, which activation is on record?
Answer: inactive: -8.43%

Question: For `CC(NC(=O)COC(=O)C(O)(c1ccccc1)c1ccccc1)c1ccccc1` (stereo not drawn), which activation is on record?
Answer: inactive: -5.79%

Question: With `Cc1ccccc1OP(=O)(Nc1ccccn1)Oc1ccccc1C` as the compound, how does the activation read?
Answer: inactive: -6%

Question: Which activation does the source give for `O=[N+]([O-])c1cc([N+](=O)[O-])c2nc[nH]c2c1` here?
Answer: inactive: -3.09%

Question: Which activation does the source give for `Cc1ccc(NP(=O)(Oc2cccc(C)c2)Oc2cccc(C)c2)nc1` here?
Answer: inactive: 3.55%

Question: For `c1ccc(-c2nn[nH]n2)c(-c2nn[nH]n2)c1`, which activation is on record?
Answer: inactive: -4.05%

Question: With `CCNC(=S)/N=C(\N)N[N+](=O)[O-]` as the compound, how does the activation read?
Answer: inactive: -3.95%

Question: With `O=C(NC1CCS(=O)(=O)C1)NP(=S)(Oc1ccccc1)Oc1ccccc1` (stereo not drawn) as the compound, how does the activation read?
Answer: inactive: -0.915%

Question: With `O=P1(N(CCCl)CCCl)OCCC2CCCCN21` (stereo not drawn) as the compound, how does the activation read?
Answer: inactive: 0.33%

Question: For `O=[As](O)(c1ccccc1)c1ccc(O)cc1`, which activation is on record?
Answer: inactive: -2.72%

Question: With `O=[N+]([O-])c1ccc(O)c(/C=N/Nc2ccc([N+](=O)[O-])cc2[N+](=O)[O-])c1` as the compound, how does the activation read?
Answer: inactive: -2.69%

Question: With `O=[N+]([O-])c1ncn(CCn2cnc([N+](=O)[O-])n2)n1` as the compound, how does the activation read?
Answer: inactive: 0.457%

Question: With `CC(=O)NC(SC(=S)N(C)C)C(Cl)(Cl)Cl` (stereo not drawn) as the compound, how does the activation read?
Answer: inactive: 2.06%

Question: For `O=C(OC1CN2CCC1CC2)c1cccc(Cl)c1` (stereo not drawn), which activation is on record?
Answer: inactive: -1.87%

Question: For `C(Cc1nn[nH]n1)Cc1nn[nH]n1`, which activation is on record?
Answer: inactive: -2.12%

Question: For `Nc1ccc([As](=O)(O)c2ccc([N+](=O)[O-])cc2)cc1`, which activation is on record?
Answer: inactive: -2.44%

Question: Which activation does the source give for `O=P(Nc1ccccn1)(c1ccc(Br)cc1)c1ccc(Br)cc1` here?
Answer: inactive: -0.56%

Question: For `CN(C)C1(CNC(=O)c2ccc(Cl)c(S(N)(=O)=O)c2)CCCCC1`, which activation is on record?
Answer: inactive: -5.82%

Question: Which activation does the source give for `COc1ccc(N)c([N+](=O)[O-])c1[N+](=O)[O-]` here?
Answer: inactive: 5%

Question: Which activation does the source give for `Nc1ccc(CCCCOc2ccccc2)cc1` here?
Answer: inactive: -0.915%

Question: With `CN(C(=O)Cc1ccccc1)[C@H]1CC[C@@]2(CCCO2)C[C@@H]1N1CCCC1` as the compound, how does the activation read?
Answer: inactive: -2.74%

Question: With `Cc1cc([N+](=O)[O-])cc([N+](=O)[O-])c1O` as the compound, how does the activation read?
Answer: inactive: 0.871%

Question: With `C[C@H]1OP(=O)(Oc2ccccc2)[C@H](O)[C@H](O)[C@H]1N=[N+]=[N-]` (stereo partly drawn) as the compound, how does the activation read?
Answer: inactive: -1.07%

Question: For `O=P(Nc1nc2ccccc2s1)(c1ccccc1)c1ccccc1`, which activation is on record?
Answer: inactive: 1.2%

Question: For `COc1cccc([N+](=O)[O-])c1[N+](=O)[O-]`, which activation is on record?
Answer: inactive: -11.6%

Question: Which activation does the source give for `CC(C)C(=O)NC(Sc1ccccc1)C(Cl)(Cl)Cl` (stereo not drawn) here?
Answer: inactive: -3.46%

Question: With `O=P(Nc1nccs1)(c1ccccc1)c1ccccc1` as the compound, how does the activation read?
Answer: inactive: -1.04%

Question: With `c1nnnn1CCn1cnnn1` as the compound, how does the activation read?
Answer: inactive: -1.48%

Question: Which activation does the source give for `CCC(C)(OOC(C)(C)C)OOC(C)(C)C` here?
Answer: inactive: 3.16%

Reference: PubChem BioAssay AID602332 (National Center for Advancing Translational Sciences (NCATS), 2012)
